Measurements from PubChem BioAssay AID526 (National Center for Advancing Translational Sciences (NCATS), 2006).
“And” between values parts separate entries of the source, which are not always exact repeats. Equal values may be shown once. Some of the results follow. The source made the active and inactive calls. Calls come from the whole dose curve; as a rule, active = well fitted activation curve with a large enough effect (not every such curve was filed as active); inconclusive = small, poorly fitted or top-dose-only effect, or another doubt; inactive = no such curve, though single readings can be large or run the other way.

Assay: Ubiquitin-GFP Assay
Conditions: Ubiquitin-GFP reporter cells, proteasome inhibition, GFP fluorescence, untreated = 0%, 10 µM MG-132 = 100%; at 45.9 µM (top of the series) unless noted
Excerpt: NIH Chemical Genomics Center [NCGC]
NIH Molecular Libraries Screening Centers Network [MLSCN]
The ubiquitin-proteasome pathway is present within all eukaryotic cells and plays roles in normal cellular functions and disease-related dysfunction. Proteins are tagged with a poly-ubiquitin chain that targets them for the proteasome, a multimeric protease, that degrades the protein into peptides and free ubiquitin. The proteasome has a key role in regulating cell cycle and growth and is known to control the levels of cyclins and CDK inhibitors as well as tumor suppressor proteins. Additionally, the activation of NF- B is controlled by ubiquitin-labeling and degradation of the inhibitory protein I B . […] With this in mind, proteasome inhibitors such as MG-132 and PS-341 have been used to inhibit tumor cell growth.
A cellular assay for ubiquitin-proteasome function was used to find chemical probes of this pathway. The assay used an ubiquitin-GFP construct expressed in U2OS cells (BioImage). Under basal conditions little GFP can be detected as it is degraded by the proteasome. However, treatment of the cells with a proteasome inhibitor such as MG-132 results in a rise in GFP levels that can be detected in as little as four hours. We used the Acumen-Explorer laser plate cytometer having a 488 nm laser as an excitation light source to detect the GFP. Compounds were screened in 1536-well plates using qHTS with a concentration-titration series range that varied from 46 uM to 2.9 nM.
NCGC Assay Protocol Summary:
Cells (U20S ps 2042) expressing ubiquitin (G76V-GFP) were maintained in DMEM with Glutamax-1 and high glucose, 10% FBS, 1% (v/v) penicillin-streptomycin, 0.5 mg/mL Geneticin (G418). The cells were seeded in 1536-well plates using a solenoid-based dispenser at 700 cells/5ul in DMEM medium with Glutamax-1 and high glucose containing 0.5% FBS, w/o phenol red, 25 mM HEPES. The plates were incubated at 37 °C/5% CO2 overnight. Then 23 nl of MG-132 in DMSO was added to the control wells at a final concentration of 10 uM. Next, 23 nL of library compounds in DMSO were added to the sample wells. The plates were incubated for 4 hrs at 37 °C/5% CO2. Following this incubation the plates were read on the Acumen using a cell object definition of 15 to 100 um in width and depth and a window of Total Intensity of between 77,200 and 2,720,000 FLU to enumerate GFP-expressing cells.
The %Activity was determined from the basal and MG-132 treated control wells. %Activity was determined by normalizing to the difference in signal between basal cells (0% Activity) and cells incubated with 10 uM of the proteasome inhibitor MG-132 (100% Activity). Concentration-response curves were fitted to the signals arising from the GFP fluorescence.
Assay Protocol Summary Table
Sequence Parameter Value Description
2. Time O/N 37C incubation
4. Compound 23 nL Libraries (46 uM to 2.9 nM)
5. Time 4 hr 37C incubation
6. Detector Acumen Total Intensity, GFP fluorescence (488 ex/515 em)
Keywords: NIH Roadmap, MLSCN, MLI, MLSMR, BioImage, proteasome, ubiquitin-GFP, qHTS, NCGC

| SMILES | activation (GFP accumulation) |
| --- | --- |
| COC(=O)c1cc2c(s1)N=C(c1ccccc1)N(C)P2(=O)N1CCOCC1 (centres undefined) | inactive: 1.67% |
| O=P1(Nc2nc3ccc(Cl)cc3s2)COc2ccccc2O1 (centres undefined) | inactive: 0% |
| C[C@@H](O)COc1ccc([As](=O)(O)O)cc1N | inactive: -5.28% [at 9.17 µM] |
| CN1CCC[C@H](OC(=O)C(c2ccccc2)c2ccccc2)C1 | inactive: -5.71% [at 9.17 µM] |
| c1nnnn1CCn1cnnn1 | inactive: 10.7% |
| O=P(Nc1nccs1)(c1ccccc1)c1ccccc1 | inactive: -2.63% |
| O=C(OC1CN2CCC1CC2)c1cccc(Cl)c1 (centres undefined) | inactive: -6.9% |
| [N-]=[N+]=Nc1ccc([As](=O)(O)O)cc1 | inactive: -4.65% [at 9.17 µM] |
| CN(C(=O)Cc1ccccc1)[C@@H]1CC[C@@]2(CCCO2)C[C@H]1N1CCCC1 | inactive: 0.389% |
| O=C(CO)Nc1ccc([As](=O)(O)O)cc1 | inactive: 1.03% [at 9.17 µM] |
| CCc1nc2c(n1)c1c(non1O)c1c2no[n+]1[O-] | inactive: -9.34% |
| NCC[C@@H](N)CSP(=O)(O)O | inactive: -8.5% [at 9.17 µM] |
| Cc1c2non([O-])c-2c(C)[n+](=O)[n+]1[O-] | inactive: -3.12% |
| O=[N+]([O-])c1ccc(C[As](=O)(O)O)cc1 | inactive: -9.73% [at 9.17 µM] |
| C(Cc1nn[nH]n1)c1nn[nH]n1 | inactive: 2.7% [at 9.17 µM] |
| [N-]=[N+]=NCC(O)CN=[N+]=[N-] (centres undefined) | inactive: 8.7% [at 9.17 µM] |
| CN(C(=O)Cc1ccc(Cl)c(Cl)c1)[C@H]1CCCC[C@@H]1N1CCCC1 | inactive: 12.6% and inactive: -5.19% and inactive: -2.5% |
| O=[As]c1ccc(S(=O)(=O)NCCO)cc1 (centres undefined) | inactive: 6.53% [at 9.17 µM] |
| [N-]=[N+]=NCC(N)=O | inactive: -12.8% [at 9.17 µM] |
| NC(=O)Nc1cc([As](=O)(O)O)cc(I)c1O | inactive: 4.23% [at 9.17 µM] |

| SMILES | activation (GFP accumulation) |
| --- | --- |
| O=C(OC1CN2CCC1CC2)C12CC3CC(CC(C3)C1)C2 (centres undefined) | inactive: -9.43% |
| O=C(COc1ccccc1)OC1CN2CCC1CC2 (centres undefined) | inactive: 0% |
| O=C(O)[C@@H](O)c1ccc([As](=O)(O)O)cc1 | inactive: -2.15% [at 9.17 µM] |
| COP1(=S)c2c(C)nn(CCC#N)c2N=C(c2ccc(F)cc2)N1C (centres undefined) | inactive: 1.15% |
| O=P1(Nc2ccc(Br)cn2)COc2ccccc2OC1 | inactive: 0.534% |
| O=P1(Nc2ncccn2)COc2ccccc2OC1 | inactive: 3.45% |
| Cc1nn(-c2ccccc2)c2c1P(=O)(N1CCOCC1)N(C)C(c1ccccc1)=N2 (centres undefined) | inactive: -2.51% |
| CN(C(=O)Cc1ccc(Cl)c(Cl)c1)[C@@H]1CCCC[C@H]1N1CCCC1 | inactive: 3.18% [middle of 4 runs] |
| Clc1n[nH]nc1-c1nn[nH][15n]1 | inactive: 2.6% |
| O=P1(Nc2ccccn2)COc2ccccc2OC1 | inactive: -4.97% |
| CN(CCCl)Cc1cc(Cl)c(NC2=NCCN2)c(Cl)c1 | inactive: 8.2% |
| CN(C(=O)Cc1ccc(Cl)c(Cl)c1)[C@@H]1CC[C@@]2(CCCO2)C[C@H]1N1CCCC1 | inactive: -1.25% |
| NS(=O)(=O)Cc1ccc([As](=O)(O)O)cc1 | inactive: -6.82% [at 9.17 µM] |
| O=C(CC(=O)c1ccccc1)O[C@H]1CN2CCC1CC2 | inactive: 1.97% [at 9.17 µM] |
| CCOP1(=S)c2c(C)nn(CCC#N)c2N=C(c2ccc(F)cc2)N1C (centres undefined) | inactive: -1.69% |
| NC(=O)Nc1ccc([As](=O)(O)O)cc1 | inactive: -8.51% [at 20.5 µM] |
| O=[As](O)(O)c1ccc([As](=O)(O)O)cc1 | inactive: 6.82% [at 9.17 µM] |
| CCOP1(=S)c2c(C)nn(CCC#N)c2N=C(c2ccccc2F)N1C (centres undefined) | inactive: -0.962% |
| O=P(Nc1nccs1)(c1ccccc1)c1nc2ccccc2s1 (centres undefined) | inactive: -4.17% |
